In patent publication US5486526A, “Histamine H3 -receptor antagonists and therapeutic uses thereof” (The University of Toledo, priority 1993, dated 1996):
Like-named read-outs stand apart in the source and are kept apart here.

The chains behind the UniProt entries cited, without tags or fusion partners. Where a name states a change or a piece, a line headed by the entry shows the natural chain unless it says otherwise.
UniProt Q9QYN8: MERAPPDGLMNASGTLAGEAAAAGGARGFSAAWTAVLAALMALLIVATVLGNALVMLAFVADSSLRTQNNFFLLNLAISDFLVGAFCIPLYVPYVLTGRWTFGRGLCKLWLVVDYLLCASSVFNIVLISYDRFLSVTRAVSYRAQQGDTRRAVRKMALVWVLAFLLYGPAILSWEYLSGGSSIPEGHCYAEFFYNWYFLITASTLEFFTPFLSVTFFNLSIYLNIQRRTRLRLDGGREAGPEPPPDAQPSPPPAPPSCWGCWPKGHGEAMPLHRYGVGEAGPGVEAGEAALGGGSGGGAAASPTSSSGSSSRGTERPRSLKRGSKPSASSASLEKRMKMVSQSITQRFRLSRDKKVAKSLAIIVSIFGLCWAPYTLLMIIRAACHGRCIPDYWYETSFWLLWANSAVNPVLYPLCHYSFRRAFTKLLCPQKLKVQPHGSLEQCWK

Target: T1, histamine H3 receptor (Rattus norvegicus, UniProt Q9QYN8)
T1 construct: from tissue
Test: Inhibition of [^3 H]-N-alpha-methylhistamine binding to rat brain membranes
Protocol: A series of compounds were prepared and tested for their histamine H3 receptor antagonist activity. The antagonist activity of the compounds was detected by observing inhibition of (^3 H)-N-(alpha)methylhistamine activity on rat brain membranes.
The various compounds were tested for the ability to bind to the histamine H3 receptor. A binding assay in a rat brain membrane preparation, based on inhibition of binding of [^3 H]-N-alpha-methylhistamine using excess unlabeled alpha-methylhistamine to account for nonspecific binding, was developed.

**Q.** For `O=C(CCCCC1CCCCC1)N1CCC(c2c[nH]cn2)CC1` [Compound 1, 4-(1-cyclohexylvaleroyl-4-piperidyl)-1H-imidazole], which IC50 is on record?
**A.** The IC50 was 0.023 ± 0.006 µM.

**Q.** And the IC50 (read-out: affinity, repeated in text)?
**A.** The IC50 was 0.023 µM.
